Measured values from paper PMC10165945 (Journal of medicinal chemistry, 2013).
Like-named read-outs stand apart in the source and are kept apart here.

Sequences of proteins named here, by UniProt entry; tags and fusion partners are left off.
UniProt P14735, whole entry: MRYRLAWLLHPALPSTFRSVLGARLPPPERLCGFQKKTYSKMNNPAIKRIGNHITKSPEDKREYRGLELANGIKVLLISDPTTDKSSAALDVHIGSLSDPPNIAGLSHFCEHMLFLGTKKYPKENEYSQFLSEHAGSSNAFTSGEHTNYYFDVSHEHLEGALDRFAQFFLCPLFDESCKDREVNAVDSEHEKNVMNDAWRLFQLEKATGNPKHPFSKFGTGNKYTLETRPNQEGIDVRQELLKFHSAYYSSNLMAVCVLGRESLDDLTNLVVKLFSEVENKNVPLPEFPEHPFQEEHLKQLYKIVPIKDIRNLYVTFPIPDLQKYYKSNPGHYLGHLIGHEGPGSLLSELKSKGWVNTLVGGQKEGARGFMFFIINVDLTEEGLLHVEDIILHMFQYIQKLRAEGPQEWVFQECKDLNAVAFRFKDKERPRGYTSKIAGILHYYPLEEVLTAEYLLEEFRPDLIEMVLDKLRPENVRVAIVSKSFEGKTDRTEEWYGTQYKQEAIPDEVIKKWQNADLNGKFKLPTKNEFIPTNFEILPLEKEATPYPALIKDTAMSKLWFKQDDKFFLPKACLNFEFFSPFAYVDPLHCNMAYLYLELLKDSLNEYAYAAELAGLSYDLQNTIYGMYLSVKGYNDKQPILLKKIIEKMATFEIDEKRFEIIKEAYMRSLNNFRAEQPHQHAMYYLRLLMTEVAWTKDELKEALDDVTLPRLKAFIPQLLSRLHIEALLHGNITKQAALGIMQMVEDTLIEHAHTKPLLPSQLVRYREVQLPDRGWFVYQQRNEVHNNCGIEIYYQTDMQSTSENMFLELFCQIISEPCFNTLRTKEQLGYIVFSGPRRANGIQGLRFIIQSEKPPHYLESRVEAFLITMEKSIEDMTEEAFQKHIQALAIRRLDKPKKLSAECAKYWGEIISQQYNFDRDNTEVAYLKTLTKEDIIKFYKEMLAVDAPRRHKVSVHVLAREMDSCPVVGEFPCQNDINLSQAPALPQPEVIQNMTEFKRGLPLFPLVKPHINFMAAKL

Target: recombinant human IDE (Homo sapiens, UniProt P14735)
Assay: IDE activity assay, degradation of fluorogenic peptide substrate FRET1
Format: biochemical
Settings: read-out: ki, nM (FRET1), FRET1 5 μM, n = 3
[1] = Table 3, P2' and terminal group

Substance | Ki (Table 2, truncation) [nM] | Ki [1] [nM]
(2S,3R)-N^1-((S)-1-((S)-1-amino-3-(1H-indol-2-yl)-1-oxopropan-2-ylamino)-5-guanidino-1-oxopentan-2-yl)-N^4,3-dihydroxy-2-(naphthalen-2-ylmethyl)succinamide [inhibitor 10b] | 498 ± 10 | –
(2S,3R)-N^1-((S)-1-amino-5-guanidino-1-oxopentan-2-yl)-N^4,3-dihydroxy-2-(naphthalen-2-ylmethyl)succinamide [inhibitor 12b] | – | > 33000
(2R,3S)-N^1-((S)-1-((S)-1-Amino-3-(1H-indol-2-yl)-1-oxopropan-2-ylamino)-5-guanidino-1-oxopentan-2-yl)-N^4,3-dihydroxy-2-(naphthalen-2-ylmethyl)succinamide [inhibitor 10a] | 18000 ± 1100 | –
(2R,3S)-N^1-((S)-1-Amino-5-guanidino-1-oxopentan-2-yl)-N^4,3-dihydroxy-2-(naphthalen-2-ylmethyl)succinamide [inhibitor 12a] | – | > 33000
